Measured values published in patent publication US4921984A, “Novel platinum complexes” (Nippon Kayaku Kabushiki Kaisha, priority 1985, dated 1990).

Row | SMILES | Solubility in water
1 | O=C1[O][Pt-2]2([NH2+]CCCC[NH2+]2)[O]C(=O)C12CCC2 [Compound No. 2, cis-Cyclobutane-1,1-dicarboxylato-1,4-butanediamine Platinum] | > 5000 µg/mL
2 | CCC(N)CCCN.O=C([O-])C1(C(=O)[O-])CCOCC1.[Pt+2] [Compound No. 12, cis-4-Oxacyclohexane-1,1-dicarboxylato-1-ethyl-1,4-butanediamine platinum] | > 5000 µg/mL
3 | CCC(CN)CCN.O=C([O-])C1(C(=O)[O-])CCC1.[Pt+2] [Compound No. 32, cis-Cyclobutane-1,1-dicarboxylato-2-ethyl-1,4-butanediamine platinum] | > 5000 µg/mL
4 | CC(N)CCCN.O=C([O-])C1(C(=O)[O-])CCC1.[Pt+2] [Compound No. 7, cis-Cyclobutane-1,1-dicarboxylato-1-methyl-1,4-butanediamine platinum] | > 5000 µg/mL
